What is called IC50 is the concentration that gives 50% inhibition. Broadly, the Ki is the equilibrium dissociation constant of an inhibitor or competing ligand from its target.

From ChEMBL document CHEMBL1269007, “Synthesis and biological evaluation of Apogossypolone derivatives as pan-active inhibitors of antiapoptotic B-cell lymphoma/leukemia-2 (Bcl-2) family proteins” (J Med Chem, 2010) come the findings set out here.

The experiment has as its target T1, Bcl-2-related protein A1 (Homo sapiens, UniProt Q16548).
T1 sequence (Q16548 whole entry): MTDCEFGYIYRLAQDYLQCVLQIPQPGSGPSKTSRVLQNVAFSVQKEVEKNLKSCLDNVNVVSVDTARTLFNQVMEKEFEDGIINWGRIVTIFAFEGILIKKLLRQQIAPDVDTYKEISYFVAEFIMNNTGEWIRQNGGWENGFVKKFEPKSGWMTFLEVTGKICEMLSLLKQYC
Nature of the experiment: Displacement of F-BakBH3 from Bfl-1 after 30 mins by fluorescence polarization assay. Background: Polarisation of emitted light reports the rotation of a fluorescent probe.

With `CC1=C(C2=C(C)C(=O)c3c(cc(O)c(O)c3CCc3ccc(C)cc3)C2=O)C(=O)c2cc(O)c(O)c(CCc3ccc(C)cc3)c2C1=O`, the 50% inhibitory concentration (IC50) was 14.7 µM and affinity was put at a Ki of 9.33 µM.
